The values that follow are results of earlier work, collected in patent publication US5723449A, “Methods and compositions for inhibiting uridine secretion” (priority 1996, dated 1998).

The data set concerns isolated cat brain. Conditions: cited from earlier work.

With uridine and cytidine, the “corneal and pupillary reflexes” value (addition to the perfused media) is on record as “return to normal”. For the same substance, where the note is “isolated brain perfused with simple blood medium, after cessation at about one hour”, the electrical activity result is “electrical activity is restored”.
